Reference: patent publication US20080207718A1, “Use of Fused Imidazole Derivatives to Mediate Ccr3 Related Conditions” (priority 2005, published 2008)

The chains behind the UniProt entries cited, without tags or fusion partners.
UniProt P51677, whole entry: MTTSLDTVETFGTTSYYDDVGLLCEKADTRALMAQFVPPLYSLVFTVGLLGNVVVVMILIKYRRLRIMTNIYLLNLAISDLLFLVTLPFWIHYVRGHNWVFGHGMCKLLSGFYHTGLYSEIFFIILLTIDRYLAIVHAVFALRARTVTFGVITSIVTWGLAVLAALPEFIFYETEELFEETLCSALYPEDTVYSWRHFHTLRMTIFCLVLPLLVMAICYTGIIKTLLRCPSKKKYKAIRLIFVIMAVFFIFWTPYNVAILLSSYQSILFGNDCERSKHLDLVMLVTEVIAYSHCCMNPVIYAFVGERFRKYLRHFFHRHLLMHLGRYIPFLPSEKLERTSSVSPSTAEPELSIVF

Molecular target: human CCR-3 (Homo sapiens, UniProt P51677)
Assay: binding of [125I]-human eotaxin to human CCR3 (SPA, membranes of RBL-2H3 cells expressing CCR3)
Settings: read-out: IC50 value (inhibition of eotaxin binding to CCR3), 4 hours at room temperature
Experimental: In this assay the effect of the compounds of the present invention on the binding of human eotaxin to human CCR-3 is determined. Recombinant cells expressing human CCR3 are captured by wheatgerm agglutinin (WGA) polyvinyltoluidene (PVT) SPA beads (available from Amersham), through a specific interaction between the WGA and carbohydrate residues of glycoproteins on the surface of the cells. [^125I]-human eotaxin (available from Amersham) binds specifically to CCR3 receptors bringing the [^125I]-human eotaxin in close proximity to the SPA beads. Emitted […] from the [^125I]-human eotaxin excite, by its proximity, the fluorophore in the beads and produce light.
Preparation of Assay Buffer: 5.96 g HEPES and 7.0 g sodium chloride are dissolved in distilled H2O and 1M aqueous CaCl2 (1 ml) and 1M aqueous MgCl2 (5 ml) are added. The pH is adjusted to 7.6 with NaOH and the solution made to a final volume of 1 L using distilled H2O. 5 g of bovine serum albumin and 0.1 g NaN3 are dissolved in the solution and the resulting buffer stored at 4° C. […]
The assay is performed in a final volume of 250 μl per well of an Optiplate™ microplate (ex Canberra Packard). […] The resulting scintillations are counted using a Canberra Packard TopCount™ scintillation counter, each well being counted for 1 minute. […]

CCOC(=O)c1ccc(NC(=O)C[n+]2cc(-c3ccc(Cl)cc3)n3c2CCC3)cc1
IC50: 6 nM
